Test results published in patent publication US8501936B2 (priority 2009, dated 2013).

The chains behind the UniProt entries cited, without tags or fusion partners. Residues count along the entry.
UniProt Q05397, whole entry: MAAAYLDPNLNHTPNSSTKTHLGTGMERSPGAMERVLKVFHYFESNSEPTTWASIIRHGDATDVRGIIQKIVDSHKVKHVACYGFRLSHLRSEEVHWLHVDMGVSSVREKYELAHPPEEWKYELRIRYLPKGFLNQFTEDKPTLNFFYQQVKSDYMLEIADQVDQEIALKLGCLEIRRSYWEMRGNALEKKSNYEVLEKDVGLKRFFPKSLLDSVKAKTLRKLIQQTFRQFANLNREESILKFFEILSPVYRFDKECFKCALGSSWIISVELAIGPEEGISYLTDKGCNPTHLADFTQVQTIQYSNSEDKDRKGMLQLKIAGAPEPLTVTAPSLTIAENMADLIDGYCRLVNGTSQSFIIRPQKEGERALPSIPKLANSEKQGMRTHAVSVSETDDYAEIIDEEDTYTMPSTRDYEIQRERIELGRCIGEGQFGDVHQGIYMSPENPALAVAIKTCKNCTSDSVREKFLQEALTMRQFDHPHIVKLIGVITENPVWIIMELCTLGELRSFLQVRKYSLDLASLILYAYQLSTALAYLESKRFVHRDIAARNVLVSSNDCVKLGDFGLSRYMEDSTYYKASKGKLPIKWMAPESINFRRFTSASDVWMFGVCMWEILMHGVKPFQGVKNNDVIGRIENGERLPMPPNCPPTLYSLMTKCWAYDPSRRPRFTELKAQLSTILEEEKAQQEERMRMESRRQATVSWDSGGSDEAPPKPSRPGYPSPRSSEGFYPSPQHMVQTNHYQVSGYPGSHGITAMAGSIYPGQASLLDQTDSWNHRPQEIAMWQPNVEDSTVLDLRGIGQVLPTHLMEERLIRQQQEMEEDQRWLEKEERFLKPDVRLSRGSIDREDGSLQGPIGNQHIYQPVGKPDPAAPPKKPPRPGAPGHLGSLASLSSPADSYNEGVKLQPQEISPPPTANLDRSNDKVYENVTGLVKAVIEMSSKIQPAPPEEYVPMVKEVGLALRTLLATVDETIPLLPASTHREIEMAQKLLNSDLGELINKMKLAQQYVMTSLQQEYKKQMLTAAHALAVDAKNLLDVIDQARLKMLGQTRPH
UniProt O60674, 815-1132: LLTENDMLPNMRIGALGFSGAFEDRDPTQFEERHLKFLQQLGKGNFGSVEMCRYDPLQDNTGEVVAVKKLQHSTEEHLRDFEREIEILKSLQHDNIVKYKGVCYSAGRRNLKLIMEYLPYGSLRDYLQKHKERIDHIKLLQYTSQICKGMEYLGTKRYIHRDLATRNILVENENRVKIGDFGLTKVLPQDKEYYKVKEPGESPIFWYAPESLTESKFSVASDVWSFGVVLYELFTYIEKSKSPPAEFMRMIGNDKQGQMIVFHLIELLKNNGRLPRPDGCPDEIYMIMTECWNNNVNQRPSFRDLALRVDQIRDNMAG
UniProt P52333, 784-1124: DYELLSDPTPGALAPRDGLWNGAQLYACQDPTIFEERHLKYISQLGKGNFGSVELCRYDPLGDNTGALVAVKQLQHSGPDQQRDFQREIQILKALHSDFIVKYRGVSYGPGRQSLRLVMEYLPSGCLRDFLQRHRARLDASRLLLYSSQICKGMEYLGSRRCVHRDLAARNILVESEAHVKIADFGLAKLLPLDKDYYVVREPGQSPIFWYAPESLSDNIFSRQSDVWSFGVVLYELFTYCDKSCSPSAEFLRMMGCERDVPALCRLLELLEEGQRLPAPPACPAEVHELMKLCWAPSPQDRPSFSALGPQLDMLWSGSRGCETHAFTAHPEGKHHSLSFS

How the values were obtained:
human FAK [1] = molecular target: T1, human FAK (Homo sapiens (Human), UniProt Q05397); assay: biochemical
human JAK2 [2] = molecular target: T2, human JAK2 (Homo sapiens (Human), UniProt O60674); assay: biochemical
human JAK3 = human JAK3 (Homo sapiens (Human), UniProt P52333); assay: biochemical
human FAK [3] = molecular target: T1, human FAK; details: read-out: FAK IC50
human JAK2 [4] = molecular target: T2, human JAK2; details: read-out: JAK2 IC50
various tumor cell lines = details: cited from earlier work

Molecule | IC50 (human FAK [1]) | IC50 (human JAK2 [2]) | also measured
CC(C)(C)OC(=O)N1CC[C@@H](c2cccc(Nc3nc4c(-c5ccc(S(C)(=O)=O)cc5)cccn4n3)c2)[C@@H](O)C1 (racemic) [Example 186, (±)-(cis)-3-Hydroxy-4-{3-[8-(4-methanesulfonyl-phenyl)-[1,2,4]triazolo[1,5-a]pyridin-2-ylamino]-phenyl}-piperidine-1-carboxylic acid tert-butyl ester] | 2990 nM |  | 
CS(=O)(=O)c1ccc(-c2cccn3nc(Nc4cccc([C@@H]5CCN(CC(N)=O)C[C@@H]5O)c4)nc23)cc1 (racemic) [Example 191, (±)-2-((cis)-3-Hydroxy-4-{3-[8-(4-methanesulfonyl-phenyl)-[1,2,4]triazolo[1,5-a]pyridin-2-ylamino]-phenyl}-piperidin-1-yl)-acetamide] | 999 nM | 0.55 nM | 
COc1ccccc1-c1cccn2nc(Nc3ccccc3)nc12 [Example 3, [8-(2-Methoxy-phenyl)-[1,2,4]triazolo[1,5-a]pyridin-2-yl]-phenyl-amine] |  | 96.9 nM | 
c1ccc(Nc2nc3c(-c4cccnc4)cccn3n2)cc1 [Example 7, Phenyl-(8-pyridin-3-yl-[1,2,4]triazolo[1,5-a]pyridin-2-yl)-amine] |  | 149 nM | IC50 (human JAK3): 3750 nM
CS(=O)(=O)c1ccc(-c2cccc3nc(Nc4ccccc4)nn23)cc1 [Example 74, [5-(4-Methanesulfonyl-phenyl)-[1,2,4]triazolo[1,5-a]pyridin-2-yl]-phenyl-amine] |  | 2.1 nM | IC50 (human JAK3): 92.7 nM
CN1CCN(c2nc3c(NCc4cccc(N)c4)cccn3n2)CC1 [Example 97, (3-Amino-benzyl)-[2-(4-methyl-piperazin-1-yl)-[1,2,4]triazolo[1,5-a]pyridin-8-yl]-amine] | ≥ 10000 nM |  | 
CS(=O)(=O)c1ccc(-c2cccn3nc(Nc4cccc(C5CCNCC5)c4)nc23)cc1 [Example 182, [8-(4-Methanesulfonyl-phenyl)-[1,2,4]triazolo[1,5-a]pyridin-2-yl]-(3-piperidin-4-yl-phenyl)-amine] |  | 0.53 nM | 
COCc1ccccc1-c1cccn2nc(Nc3ccc4c(c3)CCN(C(=O)OC(C)(C)C)CC4)nc12 [Example 241, 7-[8-(2-Methoxymethyl-phenyl)-[1,2,4]triazolo[1,5-a]pyridin-2-yl-amino]-1,2,4,5-tetrahydro-3-benzazepine-3-carboxylic acid tert-butyl ester] | ≥ 10000 nM | 1100 nM | 
COCc1ccccc1-c1cccn2nc(Nc3ccc4c(c3)CCNCC4)nc12 [Example 242, [8-(2-Methoxymethyl-phenyl)-[1,2,4]triazolo[1,5-a]pyridin-2-yl]-(2,3,4,5-tetrahydro-1H-3-benzazepin-7-yl)amine] | ≥ 10000 nM | 131 nM | 
CCOc1ccccc1-c1cccn2nc(Nc3ccc4c(c3)CCNCC4)nc12 [Example 300, [8-(2-Ethoxy-4-methyl-phenyl]-[1,2,4]triazolo[1,5a]pyridine-2-yl]-(2,3,4,5-tetrahydro-benzo[d]azepin-7-yl)-amine] |  |  | IC50 (human FAK [3]): 3000 nM; IC50 (human JAK2 [4]): 16.5 nM
AG490 |  |  | chemosensitization to cisplatin, fludarabine, adriamycin and doxorubicin (various tumor cell lines): chemosensitized

Where two headings read alike, the source gives them in different places.
